Experimental data as given in PubChem BioAssay AID1948 (National Center for Advancing Translational Sciences (NCATS), 2009).
This is a selection; strong and weak results do not stand in their true shares. Some salts or complexes appear as unconnected parts, following the source record. The source made the active and inactive calls. The call rests on the fitted dose curve; in most records, active means well fitted activation curve with a large enough effect; inconclusive means small, poorly fitted or top-dose-only effect; inactive means no such curve, though single readings can be large or run the other way.

Experiment: qHTS Assay for Compounds that Induce Erasure of Genomic Imprints;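 further: 0% = negative control wells on the plate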
Conditions: mouse ES Peg3-LacZ reporter, beta-gal luminescence, 40 h; at 60.7 µM (top of the series) unless noted
In the case of `O=[N+]([O-])[O-].[NH4+]`, the activity change, positive = activation is reported as inactive: 0.3%. In the case of `Cc1ccc(NP(C)(=O)Oc2ccccc2)c(C)c1` (centres undefined), the activity change, positive = activation is reported as inactive: -10%. With `COc1ccccc1OP(C)(=O)Nc1ccc(C)cc1` (centres undefined) the activity change, positive = activation was inactive: -11.4%. In the case of `N1=C(c2nnc(-c3nn[nH]n3)nn2)NNN1`, the activity change, positive = activation is reported as inactive: 1.86% [at 10.9 µM]. For `CP(=S)(Nn1cnnc1)Oc1ccccc1` (centres undefined), the activity change, positive = activation was inactive: 3.16%. For `CP(=O)(NC(=O)Nc1ccccc1)Oc1ccccc1` (centres undefined), the activity change, positive = activation was inactive: -2.25%. With `[Au].[Au].c1ccc([PH+](c2ccccc2)c2ccccc2)cc1.c1ccc([PH+](c2ccccc2)c2ccccc2)cc1.n1n[nH]c(-c2nnn[nH]2)n1` the activity change, positive = activation was inactive: -25% [at 10.9 µM]. With `CCOP(C)(=S)SCC(=O)NC(C)C(=O)O` (centres undefined) the activity change, positive = activation was inactive: 9.78%. In the case of `Cc1nc2ccc3ccccc3c2s1.O=[N+]([O-])c1cc([N+](=O)[O-])c(O)c([N+](=O)[O-])c1`, the activity change, positive = activation is reported as inactive: -3.32%. For `O=[N+]([O-])c1cccc([N+](=O)[O-])c1`, the activity change, positive = activation was inactive: -0.662%. In the case of `Cc1ccc([N+](=O)[O-])cc1[N+](=O)[O-]`, the activity change, positive = activation is reported as inactive: -1.03%. With `O=[N+]([O-])OCC(CO[N+](=O)[O-])(CO[N+](=O)[O-])CO[N+](=O)[O-]` the activity change, positive = activation was inactive: -4.38%. For `Cc1ccc(C)c(NP(C)(=O)Oc2ccccc2)c1` (centres undefined), the activity change, positive = activation was inactive: -8.28%. In the case of `CP(=O)(Nc1ccccc1F)Oc1ccccc1` (centres undefined), the activity change, positive = activation is reported as inactive: -1.09%. With `Cc1cccc([N+](=O)[O-])c1[N+](=O)[O-]` the activity change, positive = activation was inactive: 6.19%. In the case of `CCC(C)(OO)OOC(C)(CC)OO` (centres undefined), the activity change, positive = activation is reported as inactive: -4.95%. In the case of `CN(C)CCOC(=O)C(O)(c1ccccc1)C1CCCCC1` (centres undefined), the activity change, positive = activation is reported as inactive: -3.8%. For `Cc1c([N+](=O)[O-])cccc1[N+](=O)[O-]`, the activity change, positive = activation was inactive: 6.49%. For `Cc1ccc([N+](=O)[O-])c([N+](=O)[O-])c1`, the activity change, positive = activation was inactive: -1.9%. With `CCOP(C)(=S)SCC(=O)NC(C)(CC)C(=O)O` (centres undefined) the activity change, positive = activation was inactive: -14.8%. For `CCOP(=O)(CC)OCC`, the activity change, positive = activation was inactive: 1.9%. In the case of `[NH4+].[O-][Cl+3]([O-])([O-])[O-]`, the activity change, positive = activation is reported as inactive: 1.05%. For `Cc1ccccc1NP(C)(=O)Nc1ccccc1C`, the activity change, positive = activation was inactive: 2.47%. For `CCN(CCCl)Cc1ccccc1C`, the activity change, positive = activation was inactive: -13.4%. With `NNC(NN)NN.n1nc(-c2nn[nH]n2)n[nH]1` the activity change, positive = activation was inactive: -6.49% [at 10.9 µM]. With `CP(=O)(Nc1ccc2c(c1)OCCO2)Oc1ccccc1` (centres undefined) the activity change, positive = activation was inactive: 2.74%. With `OCCSCCO` the activity change, positive = activation was inactive: -1.37%. For `COc1ccccc1OP(C)(=O)Nc1c(C)n(C)n(-c2ccccc2)c1=O` (centres undefined), the activity change, positive = activation was inactive: -0.924%. With `CP(=O)(Oc1ccccc1)N1CCOC1=O` (centres undefined) the activity change, positive = activation was inactive: -2.66%. In the case of `N#[O+].[C-]#N.[C-]#N.[C-]#N.[C-]#N.[C-]#N.[Fe+2].[Na+].[Na+]`, the activity change, positive = activation is reported as inactive: -2.88%. In the case of `C/C1=C2N=C(/C=C3N=C(/C(C)=C4\[N-][C@@](C)([C@H]5N=C1[C@@](C)(CCC(=O)NC[C@H](C)OP(=O)([O-])O[C@@H]1[C@H](O)[C@H](n6cnc7cc(C)c(C)cc76)O[C@@H]1CO)[C@@H]5CC(N)=O)[C@](C)(CC(N)=O)[C@H]4CCC(N)=O)[C@@](C)(CC(N)=O)[C@@H]\3CCC(N)=O)C(C)(C)[C@@H]/2CCC(N)=O.[C-]#N.[Co+3]`, the activity change, positive = activation is reported as inactive: -47.8% [at 16.8 µM]. In the case of `COc1ccccc1OP(C)(=O)Nc1ccc(C)c(C)c1` (centres undefined), the activity change, positive = activation is reported as inactive: -4.3%. In the case of `Cc1nc2ccc3ccccc3c2o1.O=[N+]([O-])c1cc([N+](=O)[O-])c(O)c([N+](=O)[O-])c1`, the activity change, positive = activation is reported as inactive: -33.5%. For `CP(=O)(Nc1ccccn1)Oc1ccccc1` (centres undefined), the activity change, positive = activation was inactive: -2.06%.
